Results: patent publication US7192760B2 (priority 2000, dated 2007)

Tested on: Brevibacterium lactofermentum KFCC-10680
Test: Death rate after NTG mutagen treatment
Conditions: NTG final concentration 200 mg/l, 20 minutes; spread on minimal medium (Medium 1)

SMILES: CN(N=O)C(=N)N[N+](=O)[O-]
- death rate: 85%
